{"source": "patent US9340577B2", "about": "“HLA binding motifs and peptides and their uses” (priority 1992, dated 2016)", "data": [{"target": "HLA-A3.2 (A*0301) (Homo sapiens, UniProt P04439)", "experiment": "biochemical", "format": "binding", "units": {"IC50": "nM"}, "values": [{"smiles": "CC(C)[C@H](NC(=O)[C@H](CCC(=O)O)NC(=O)[C@@H](NC(=O)[C@@H](N)CCCNC(=N)N)[C@@H](C)O)C(=O)N[C@@H](Cc1ccc(O)cc1)C(=O)N[C@@H](CCC(N)=O)C(=O)N[C@@H](Cc1ccccc1)C(=O)N[C@@H](C)C(=O)N[C@@H](Cc1ccccc1)C(=O)N[C@@H](CCCCN)C(=O)O", "note": "[Peptide 78.0062]", "IC50": 285}, {"smiles": "CC[C@H](C)[C@H](NC(=O)CNC(=O)[C@H](CCCCN)NC(=O)[C@H](CS)NC(=O)[C@H](CC(N)=O)NC(=O)[C@@H](NC(=O)[C@H](CCC(N)=O)NC(=O)CN)C(C)C)C(=O)N[C@@H](Cc1ccc(O)cc1)C(=O)N[C@@H](Cc1ccc(O)cc1)C(=O)O", "note": "[Peptide 88.0209]", "IC50": 1020}, {"smiles": "CSCC[C@H](NC(=O)[C@H](CCC(N)=O)NC(=O)[C@H](CCC(N)=O)NC(=O)[C@@H](N)CCC(N)=O)C(=O)N[C@@H](Cc1ccccc1)C(=O)N[C@@H](CC(C)C)C(=O)NCC(=O)N[C@H](C(=O)N[C@H](C(=O)N[C@@H](CCCCN)C(=O)O)C(C)C)[C@@H](C)O", "note": "[Peptide 88.0219]", "IC50": 1020}, {"smiles": "CC(C)C[C@H](N)C(=O)N[C@@H](CCC(N)=O)C(=O)N[C@@H](Cc1c[nH]cn1)C(=O)N[C@@H](C)C(=O)N[C@@H](CO)C(=O)N[C@H](C(=O)N[C@@H](CO)C(=O)N[C@H](C(=O)N1CCC[C@H]1C(=O)N[C@@H](CCCCN)C(=O)O)[C@@H](C)O)[C@@H](C)O", "note": "[Peptide 88.0224]", "IC50": 19}, {"smiles": "CC[C@H](C)[C@H](NC(=O)[C@H](CCC(N)=O)NC(=O)[C@@H](N)CCCCN)C(=O)N[C@H](C(=O)N[C@@H](CCSC)C(=O)N[C@@H](Cc1ccccc1)C(=O)N[C@@H](CC(C)C)C(=O)N[C@@H](CCCNC(=N)N)C(=O)N[C@@H](Cc1ccc(O)cc1)C(=O)O)C(C)C", "note": "[Peptide 88.0330]", "IC50": 138}, {"smiles": "CSCC[C@H](NC(=O)[C@@H](NC(=O)[C@@H](N)CC(N)=O)[C@@H](C)O)C(=O)N[C@@H](Cc1c[nH]cn1)C(=O)N[C@@H](Cc1ccc(O)cc1)C(=O)N[C@H](C(=O)N[C@@H](CC(N)=O)C(=O)N[C@@H](Cc1c[nH]c2ccccc12)C(=O)N[C@@H](CCCCN)C(=O)O)[C@@H](C)O", "note": "[Peptide 1589.16]", "IC50": 1020}, {"smiles": "CC[C@H](C)[C@H](N)C(=O)N[C@H](C(=O)N[C@H](C(=O)N[C@@H](CCCCN)C(=O)N[C@@H](CCCNC(=N)N)C(=O)N[C@@H](CCCNC(=N)N)C(=O)N[C@@H](CCC(N)=O)C(=O)N[C@@H](CCC(N)=O)C(=O)N[C@@H](CCCCN)C(=O)O)[C@@H](C)CC)C(C)C", "note": "[Peptide 9012.0206]", "IC50": 198}, {"smiles": "CC[C@H](C)[C@H](NC(=O)CNC(=O)[C@H](Cc1ccccc1)NC(=O)[C@@H](NC(=O)[C@H](CC(C)C)NC(=O)CN)C(C)C)C(=O)N[C@@H](CC(C)C)C(=O)N[C@H](C(=O)N[C@@H](CCCCN)C(=O)N[C@@H](CCCNC(=N)N)C(=O)O)[C@@H](C)CC", "note": "[Peptide 9012.0244]", "IC50": 3510}, {"smiles": "CC[C@H](C)[C@H](NC(=O)[C@H](CC(C)C)NC(=O)[C@H](Cc1c[nH]c2ccccc12)NC(=O)[C@H](CC(=O)O)NC(=O)[C@@H](NC(=O)[C@H](CCCCN)NC(=O)[C@H](CCCNC(=N)N)NC(=O)[C@H](CCC(N)=O)NC(=O)[C@@H](N)CCCNC(=N)N)[C@@H](C)CC)C(=O)N[C@@H](CCCCN)C(=O)O", "note": "[Peptide 9017.0247]", "IC50": 198}]}, {"target": "HLA-A11 (A*1101) (Homo sapiens, UniProt P04439, A114D/D185E/E176A/F33Y/L180Q/S129P/T187R)", "experiment": "biochemical", "format": "binding", "units": {"IC50": "nM"}, "values": [{"smiles": "CC(C)C[C@H](NC(=O)[C@H](CC(C)C)NC(=O)[C@H](Cc1c[nH]cn1)NC(=O)[C@H](CC(C)C)NC(=O)[C@@H](NC(=O)[C@H](CCC(N)=O)NC(=O)[C@H](C)N)C(C)C)C(=O)N[C@@H](CCCCN)C(=O)N[C@@H](CCCNC(=N)N)C(=O)O", "note": "[Peptide 88.0364]", "IC50": 285}, {"smiles": "C[C@H](NC(=O)[C@H](CC(N)=O)NC(=O)[C@@H](NC(=O)[C@@H](N)CC(N)=O)[C@@H](C)O)C(=O)NCC(=O)N[C@H](C(=O)N[C@@H](CC(=O)O)C(=O)N1CCC[C@H]1C(=O)N[C@@H](CCCNC(=N)N)C(=O)O)[C@@H](C)O", "note": "[Peptide 88.0372]", "IC50": 1020}, {"smiles": "CSCC[C@H](NC(=O)CNC(=O)CNC(=O)[C@H](CCSC)NC(=O)[C@H](CS)NC(=O)[C@@H](NC(=O)[C@@H](N)CO)C(C)C)C(=O)N[C@@H](CC(N)=O)C(=O)N[C@@H](CCCNC(=N)N)C(=O)O", "note": "[Peptide 1556.60]", "IC50": 17}, {"smiles": "CC[C@H](C)[C@H](NC(=O)[C@H](CCC(N)=O)NC(=O)[C@@H](NC(=O)[C@H](C)NC(=O)[C@H](CO)NC(=O)[C@@H](NC(=O)[C@@H](N)[C@@H](C)O)C(C)C)[C@@H](C)O)C(=O)N[C@H](C(=O)N[C@@H](CCCNC(=N)N)C(=O)O)C(C)C", "note": "[Peptide 1589.26]", "IC50": 183}, {"smiles": "CC[C@H](C)[C@H](NC(=O)[C@H](CC(C)C)NC(=O)[C@H](C)NC(=O)[C@@H](NC(=O)[C@H](CC(C)C)NC(=O)[C@H](C)NC(=O)[C@H](CC(C)C)NC(=O)[C@@H](N)Cc1ccc(O)cc1)[C@@H](C)O)C(=O)N[C@@H](CCCCN)C(=O)O", "note": "[Peptide 9017.0097]", "IC50": 3040}, {"smiles": "CC[C@H](C)[C@H](NC(=O)[C@H](Cc1ccc(O)cc1)NC(=O)[C@@H](NC(=O)[C@@H](NC(=O)[C@@H](NC(=O)[C@@H](N)Cc1c[nH]c2ccccc12)[C@@H](C)O)[C@@H](C)CC)C(C)C)C(=O)N[C@@H](CCC(=O)O)C(=O)N[C@@H](Cc1ccc(O)cc1)C(=O)N[C@@H](CCCNC(=N)N)C(=O)O", "note": "[Peptide 9017.0117]", "IC50": 1510}, {"smiles": "CSCC[C@H](NC(=O)[C@H](Cc1c[nH]cn1)NC(=O)[C@H](Cc1c[nH]cn1)NC(=O)[C@H](CCCCN)NC(=O)[C@@H](NC(=O)[C@@H](N)CC(C)C)C(C)C)C(=O)N[C@@H](Cc1ccc(O)cc1)C(=O)N[C@H](C(=O)N[C@@H](CO)C(=O)N[C@@H](CCCCN)C(=O)O)C(C)C", "note": "[Peptide 9017.0216]", "IC50": 184}]}, {"target": "A*6801 (Homo sapiens, UniProt P04439, A269V/D185E/E176V/E277Q/E87N/F33Y/G231S/I121M/I166T/I218V/L180W/L300P/L318F/N151K/P208A/P217A/Q86R/R169H/T345S)", "experiment": "biochemical", "format": "binding", "units": {"IC50": "nM"}, "values": [{"smiles": "CC[C@H](C)[C@H](N)C(=O)N[C@H](C(=O)N[C@@H](Cc1ccc(O)cc1)C(=O)N[C@@H](CCCNC(=N)N)C(=O)N[C@@H](CC(=O)O)C(=O)N[C@@H](CC(N)=O)C(=O)N[C@@H](CC(N)=O)C(=O)N1CCC[C@H]1C(=O)N[C@@H](Cc1ccc(O)cc1)C(=O)O)C(C)C", "note": "[Peptide 78.0292]", "IC50": 33}, {"smiles": "CC(C)C[C@H](NC(=O)[C@H](C)NC(=O)CNC(=O)[C@H](CC(C)C)NC(=O)[C@@H](N)Cc1ccccc1)C(=O)N[C@@H](CCCCN)C(=O)N[C@@H](CO)C(=O)N[C@@H](Cc1ccccc1)C(=O)N[C@@H](CC(C)C)C(=O)N[C@@H](CCCCN)C(=O)O", "note": "[Peptide 88.0148]", "IC50": 1390}, {"smiles": "CC[C@H](C)[C@H](NC(=O)[C@H](CS)NC(=O)[C@H](CCCNC(=N)N)NC(=O)[C@@H](NC(=O)[C@@H](N)CC(C)C)[C@@H](C)CC)C(=O)N[C@H](C(=O)N[C@@H](CS)C(=O)N[C@@H](CCC(N)=O)C(=O)N[C@@H](CCCCN)C(=O)O)[C@@H](C)CC", "note": "[Peptide 88.0298]", "IC50": 285}, {"smiles": "CC(C)[C@H](NC(=O)CNC(=O)[C@H](CO)NC(=O)[C@H](CS)NC(=O)[C@@H](NC(=O)[C@@H](N)CCCCN)C(C)C)C(=O)N[C@@H](CC(=O)O)C(=O)N[C@@H](Cc1ccc(O)cc1)C(=O)N[C@@H](CCCNC(=N)N)C(=O)O", "note": "[Peptide 1589.35]", "IC50": 13600}, {"smiles": "CC[C@H](C)[C@H](NC(=O)[C@H](CCC(=O)O)NC(=O)[C@@H](NC(=O)[C@H](CC(C)C)NC(=O)[C@H](CO)NC(=O)[C@H](CCCNC(=N)N)NC(=O)[C@@H](NC(=O)[C@@H](N)CCC(N)=O)[C@@H](C)O)[C@@H](C)O)C(=O)N[C@@H](CC(C)C)C(=O)N[C@@H](CCCCN)C(=O)O", "note": "[Peptide 9012.0217]", "IC50": 297}, {"smiles": "CC[C@H](C)[C@H](NC(=O)CNC(=O)[C@H](Cc1ccccc1)NC(=O)[C@@H](NC(=O)[C@H](CC(C)C)NC(=O)CN)C(C)C)C(=O)N[C@@H](CC(C)C)C(=O)N[C@H](C(=O)N[C@@H](CCCCN)C(=O)N[C@@H](CCCNC(=N)N)C(=O)O)[C@@H](C)CC", "note": "[Peptide 9012.0244]", "IC50": 183}]}]}
